Results as given in patent US20120189566A1, “EXTERNAL PREPARATION CONTAINING PANTETHINE PHOSPHATE ESTER” (DAIICHI FINE CHEMICAL CO., LTD., priority 2009, published 2012).
Read-outs that look alike come from different tables or passages of the source.

Conditions: 0.1% (w/v) in 50 mM buffer, 40° C. for 6 months
[1] = pH 4 or lower, or pH 6.5 or higher

| stability (content by HPLC before and after heating) (between pH 5 and 6) | stability (content by HPLC before and after heating) [1] | Substance |
| --- | --- | --- |
| no difference in stability | stable | pantethine-4′,4″-di-α-glucoside |
| no difference in stability | clearly degraded | pantethine-4′-α-glucoside |
